Data published in PubChem BioAssay AID1457 (National Center for Advancing Translational Sciences (NCATS), 2008).
This is a selection; strong and weak results do not stand in their true shares. Some structures show a salt or complex split into parts, the way the source records it. Activity calls are given as the source filed them. Calls come from the whole dose curve; as a rule, active = well fitted inhibition curve with a large enough effect; inconclusive = small, poorly fitted or top-dose-only effect; inactive = no such curve, though single readings can be large or run the other way.

assay: qHTS Assay for Identifying the Cell-Membrane Permeable IMPase Inhibitors: Potentiation with Lithium; conditions: CHO-M1 cells, IP1 TR-FRET (IP-One), carbachol + lithium; at 59.4 µM (top of the series) unless noted;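 note: IP1 builds up when IMPase is blocked and the TR-FRET signal falls; plate controls were basal vehicle for no effect and high inhibitor control for full effect; nearly all actives have a fitted effect of over 50% in size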

Row | SMILES | activity, negative = IMPase inhibition
1 | CCN(CC)CCCOC(=O)C(O)(c1ccccc1)c1ccccc1 | inactive: 23.7%
2 | O=[N+]([O-])[O-].[NH4+] | inactive: -0.202%
3 | Cc1cccc(C)c1OP(C)(N)=O (configuration not stated) | inactive: 3.61%
4 | CC(C)(C)c1ccc(OP(C)(=O)Nc2ccc(SC(F)(F)F)cc2)cc1 (configuration not stated) | inactive: 3.3%
5 | O=[N+]([O-])c1ccc2c(c1)C=Nc1ccccc1O2 | inactive: -6.49%
6 | CCOC(=O)c1ccc(NP(C)(=O)Oc2ccccc2)cc1 (configuration not stated) | inactive: -5.26%
7 | Cc1ccc(NP(C)(=O)Oc2ccccc2)c(C)c1 (configuration not stated) | inactive: 38.5% [at 38.3 µM]
8 | COc1ccccc1OP(C)(=O)Nc1ccc(C)cc1 (configuration not stated) | inactive: -9.42% [at 38.3 µM]
9 | COc1ccc(OP(C)(=O)Nc2cccc(F)c2)cc1 (configuration not stated) | inactive: -1.07% [at 38.3 µM]
10 | COc1ccccc1OP(C)(=O)Nc1cc(Cl)ccc1C (configuration not stated) | inactive: 13.3%
11 | Cc1cc(C)cc(OP(C)(N)=O)c1 (configuration not stated) | inactive: -14.6%
12 | N1=C(c2nnc(-c3nn[nH]n3)nn2)NNN1 | inactive: -6.61%
13 | CP(=S)(Nn1cnnc1)Oc1ccccc1 (configuration not stated) | inactive: 7.84% [at 38.3 µM]
14 | COc1ccccc1OP(C)(=O)Nc1ccccc1 (configuration not stated) | inactive: -5.6%
15 | CP(=O)(Nc1ccccc1Br)Oc1ccccc1 (configuration not stated) | inactive: -5.49%
16 | [Au].[Au].c1ccc([PH+](c2ccccc2)c2ccccc2)cc1.c1ccc([PH+](c2ccccc2)c2ccccc2)cc1.n1n[nH]c(-c2nnn[nH]2)n1 | inactive: -2.09%
17 | CP(=O)(Oc1ccccc1)OC(c1ccccc1)C(F)(F)F (configuration not stated) | inactive: 2.7%
18 | Cc1cccc(C)c1OP(C)(=O)Nc1ccc(SC(F)(F)F)cc1 (configuration not stated) | inactive: 8.47%
19 | Cc1cc(C)cc(OP(C)(=O)Nc2ccc(SC(F)(F)F)cc2)c1 (configuration not stated) | inactive: 4.06%
20 | CP(=O)(NC(=O)Nc1ccccc1)Oc1ccccc1 (configuration not stated) | inactive: -2.85% [at 38.3 µM]
21 | CCOP(C)(=S)SCC(=O)NC(C)C(=O)O (configuration not stated) | inactive: -0.158% [at 38.3 µM]

Row | SMILES | activity, negative = IMPase inhibition
22 | CCOC(=O)c1ccc(NP(C)(=O)Oc2ccc(OC)cc2)cc1 (configuration not stated) | inactive: 2.98%
23 | CP(=O)(Nc1ccccn1)Oc1ccc(Cl)cc1 (configuration not stated) | inactive: -14.4% [at 38.3 µM]
24 | O=[N+]([O-])c1cc([N+](=O)[O-])c(-n2nnc3ccccc32)c([N+](=O)[O-])c1 | inactive: 9.43%
25 | COc1ccccc1OP(C)(=O)Nc1c(C)cccc1C (configuration not stated) | inactive: 1.45% [at 38.3 µM]
26 | CN1CCCCC1COC(=O)C1(O)c2ccccc2CCc2ccccc21 (configuration not stated) | inactive: 1.95%
27 | CCCOc1ccc(NP(C)(=O)Oc2ccc(Cl)cc2)cc1 (configuration not stated) | inactive: 19.3%
28 | CP(=O)(Nc1ccc(SC(F)(F)F)cc1)Oc1ccccc1 (configuration not stated) | inactive: -5.44%
29 | O=[N+]([O-])c1cccc([N+](=O)[O-])c1 | inactive: -23.3%
30 | Cc1ccc([N+](=O)[O-])cc1[N+](=O)[O-] | inactive: 9.8%
31 | O=[N+]([O-])OCC(CO[N+](=O)[O-])(CO[N+](=O)[O-])CO[N+](=O)[O-] | inactive: 0.143%
32 | CC1=NCCc2c1[nH]c1ccccc21.O=[N+]([O-])c1cc([N+](=O)[O-])c(O)c([N+](=O)[O-])c1 | inactive: -3.45%
33 | Cc1cc(C)cc(OP(C)(=O)Nc2ccc(C)cc2C)c1 (configuration not stated) | inactive: 22.8% [at 38.3 µM]
34 | CCOC(=O)c1ccc(NP(C)(=O)Oc2cc(C)cc(C)c2)cc1 (configuration not stated) | inactive: 11.9%
35 | Cc1cc(C)cc(OP(C)(=O)Nc2ccccn2)c1 (configuration not stated) | inactive: 25% [at 38.3 µM]
36 | CP(=O)(Nc1cccc(Br)c1)Oc1ccccc1 (configuration not stated) | inactive: 16.3%
37 | Cc1ccc(C)c(NP(C)(=O)Oc2ccccc2)c1 (configuration not stated) | inactive: 9.41% [at 38.3 µM]
38 | CC(C)c1ccc(OP(C)(=O)Nc2ccc(SC(F)(F)F)cc2)cc1 (configuration not stated) | inactive: -1.05%
39 | CP(=O)(Nc1ccccc1F)Oc1ccccc1 (configuration not stated) | inactive: -4.72% [at 38.3 µM]
40 | O=C(OCCN1CCN(CCOCc2ccccc2)CC1)C(O)(c1ccccc1)c1ccccc1 | inactive: 17.5%
41 | Cc1cccc([N+](=O)[O-])c1[N+](=O)[O-] | inactive: 8.88%
42 | CCC(C)(OO)OOC(C)(CC)OO (configuration not stated) | inactive: 4.47%

Row | SMILES | activity, negative = IMPase inhibition
43 | COc1ccc(OP(C)(=O)Nc2ccc(SC(F)(F)F)cc2)cc1 (configuration not stated) | inactive: -0.877%
44 | CCOC(=O)c1ccc(NP(C)(=O)Oc2ccc(F)cc2)cc1 (configuration not stated) | inactive: -9.61%
45 | CCN(CC)CCCOC(=O)C(O)(c1ccccc1)C1CCCCC1 (configuration not stated) | inactive: 36%
46 | CP(=O)(Nc1ccccc1)Oc1ccc(F)cc1 (configuration not stated) | inactive: -12.9% [at 38.3 µM]
47 | COc1ccc(NP(C)(=O)Oc2ccccc2OC)cc1 (configuration not stated) | inactive: 5.7%
48 | CN(C)CCOC(=O)C(O)(c1ccccc1)C1CCCCC1 (configuration not stated) | inactive: 41.3% [at 38.3 µM]
49 | Cc1ccc([N+](=O)[O-])c([N+](=O)[O-])c1 | inactive: 4.45%
50 | Cc1c([N+](=O)[O-])cccc1[N+](=O)[O-] | inactive: -10.9%
51 | CCOP(=O)(CC)OCC | inactive: 13.5%
52 | CCOP(C)(=S)SCC(=O)NC(C)(CC)C(=O)O (configuration not stated) | inactive: 10.8% [at 38.3 µM]
53 | CP(=O)(Nc1ccc2c(c1)OCCO2)Oc1ccccc1 (configuration not stated) | inactive: 2.33%
54 | NNC(NN)NN.n1nc(-c2nn[nH]n2)n[nH]1 | inactive: 1.3%
55 | [NH4+].[O-][Cl+3]([O-])([O-])[O-] | inactive: -9.35%
56 | Cc1ccccc1NP(C)(=O)Nc1ccccc1C | inactive: 9.18% [at 38.3 µM]
57 | CCN(CCCl)Cc1ccccc1C | inactive: 35.6%
58 | N#[O+].[C-]#N.[C-]#N.[C-]#N.[C-]#N.[C-]#N.[Fe+2].[Na+].[Na+] | inactive: 11.8%
59 | COc1ccc(OP(C)(=O)Nc2ccc(Br)cc2)cc1 (configuration not stated) | inactive: -1.84%
60 | CCN(CC)CC(O)COC(=O)C(O)(c1ccccc1)C1CCCCC1 (configuration not stated) | inactive: 17.9% [at 38.3 µM]
61 | CCc1ccc(OP(C)(=O)Nc2cccnc2)cc1 (configuration not stated) | inactive: 4.2%
62 | CP(=O)(Oc1ccccc1)N1CCOC1=O (configuration not stated) | inactive: -20.8% [at 38.3 µM]
